Assay: reverse phase assay of main API peak (integrity of the molecule)
Format: physicochemical
Details: A5Su formulation, API at 20 mg/mL
Method: In order to identify stable formulations of PEG-CFZ, various formulations were made wherein the desired pegylated carfilzomib compound (API) was dissolve in experimental compositions of excipients, and the stability and quantity of the intact, non-degraded API was monitored and measured in the frozen state (−20° C. or below). Formulations of API was also prepared and tested to determine the ability of each exemplary formulation to provide adequate stability in the liquid state to be suitable for clinical and commercial administration. Here, these formulations were stored at least 8 hours at room temperature and 2 days at a temperatures ranging from 2-8° C. All formulations that were tested contained desired API compounds at 1 mg/mL concentrations.
For each formulation, the stability of the API was tested using three observable and/or measurable characteristics, as follows: • 1. Integrity of the molecule, as assessed by the reverse phase assay; • 2. Clarity of the solution, via visual assessment; and • 3. Concentration of the API material in the solution, as assessed by material recovery after centrifugation Results
FIG. 2 illustrates results of similar measurements taken with the same formulations prepared with exemplary pegylated carfilzomib compound no. 39 instead of example 26. API material recovery is similarly shown in red and percent main API peak at To and T3, as measured by the same reverse phase assay, after storage at 25° C. for 3 days, is shown. […]
The percent recovery of the exemplary pegylated carfilomib compounds were measured as a function of reverse phase assays for the peak(s) representing the active molecule/compound. The percent was determined based on the area under the curve, as described below. The reverse phase assays were conducted as follows—CFZ samples were analyzed by reverse phase using a Phenomenex Gemini C18, 50×4.6 mm, 3 micron particle size column with a 47 minute HPLC method. […] Main peak percentage was determined by taking Area Under the Curve integration. […]

For “4-(4-Acetoxy-3-((1-PEG3K-1H-1,2,3-triazol-4-yl)methoxy)benzyl)-4-((4S,7S,10S,13S)-10-benzyl-7-isobutyl-15-methyl-13-((R)-2-methyloxirane-2-carbonyl)-2,5,8,11-tetraoxo-4-phenethyl-3,6,9,12-tetraazahexadecyl)morpholin-4-ium Chloride [Example 34]”, the “main API peak loss, 4° C. Loss per 1 week” value (storage at 4° C.) was 0.0, the “main API peak loss, 25° C. loss per 8 hr” value (storage at 25° C.) was 0.0 and the “main API peak loss, −70° C. loss per 2 weeks” value (storage at −70° C.) was 0.4.

— patent US11241502B2, “Stable compositions of pegylated carfilzomib compounds” (AMGEN INC., priority 2017, dated 2022)
